Literature values, collected in patent publication US8193209B2 (dated 2012).

Chains of the proteins cited; added tags and fusions are not shown. Residues count along the entry.
UniProt P23219, 24-599: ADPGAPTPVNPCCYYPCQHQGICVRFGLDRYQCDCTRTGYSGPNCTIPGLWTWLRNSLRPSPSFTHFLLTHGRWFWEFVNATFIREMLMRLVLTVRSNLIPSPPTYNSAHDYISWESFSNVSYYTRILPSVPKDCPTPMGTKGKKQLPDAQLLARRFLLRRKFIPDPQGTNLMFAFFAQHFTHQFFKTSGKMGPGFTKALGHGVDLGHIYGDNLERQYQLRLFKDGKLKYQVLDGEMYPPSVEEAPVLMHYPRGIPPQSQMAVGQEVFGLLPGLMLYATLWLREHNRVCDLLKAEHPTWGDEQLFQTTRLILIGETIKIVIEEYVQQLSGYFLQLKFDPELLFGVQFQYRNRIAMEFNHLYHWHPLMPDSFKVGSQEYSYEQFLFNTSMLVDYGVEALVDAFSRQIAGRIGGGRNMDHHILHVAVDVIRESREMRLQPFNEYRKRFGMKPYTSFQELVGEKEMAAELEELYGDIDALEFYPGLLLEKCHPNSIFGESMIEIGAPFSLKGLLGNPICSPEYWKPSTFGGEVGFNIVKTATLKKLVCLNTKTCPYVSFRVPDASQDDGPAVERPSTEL

Molecular target: COX-1 (Homo sapiens, UniProt P23219)
Details: read-out: COX-1 IC50; cited from earlier work

CS(=O)(=O)c1ccc(C2=C(c3ccccc3)C(=O)OC2)cc1 [Vioxx]
IC50: 369 µM
